Assay results: US20230113944A1, “COMPOSITIONS AND METHODS FOR THE TREATMENT OF NEURODEGENERATIVE DISEASES” (priority 2020, published 2023)
Like-named read-outs stand apart in the source and are kept apart here.

Target: T1, human nSMase2 (Homo sapiens, UniProt Q9NY59)
T1 construct: expressed in transfected cells; host or cells: HEK293T
T1 sequence (Q9NY59 1-655): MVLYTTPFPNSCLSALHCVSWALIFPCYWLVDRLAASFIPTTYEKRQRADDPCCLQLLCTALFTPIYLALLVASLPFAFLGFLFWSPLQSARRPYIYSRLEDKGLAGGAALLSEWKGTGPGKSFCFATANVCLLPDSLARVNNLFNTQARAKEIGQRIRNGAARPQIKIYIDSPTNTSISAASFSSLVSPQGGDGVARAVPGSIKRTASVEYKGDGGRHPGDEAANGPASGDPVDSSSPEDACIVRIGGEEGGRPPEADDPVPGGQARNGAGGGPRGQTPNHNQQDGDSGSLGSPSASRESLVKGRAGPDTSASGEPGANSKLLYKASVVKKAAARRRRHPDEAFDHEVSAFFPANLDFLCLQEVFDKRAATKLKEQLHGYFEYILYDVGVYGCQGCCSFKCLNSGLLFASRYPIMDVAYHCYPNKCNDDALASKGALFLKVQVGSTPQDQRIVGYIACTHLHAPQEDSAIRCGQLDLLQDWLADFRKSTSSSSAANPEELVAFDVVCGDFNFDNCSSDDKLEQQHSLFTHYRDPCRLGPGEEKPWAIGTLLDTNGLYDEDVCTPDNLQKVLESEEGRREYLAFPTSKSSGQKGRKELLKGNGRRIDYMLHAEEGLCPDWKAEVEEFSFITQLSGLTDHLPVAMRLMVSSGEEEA
Assay: biochemical
Procedure: To evaluate nSMase2 inhibitory activity of tested compounds, cell lysates from HEK293T cells over-expressing human nSMase2 were used as the source of the nSMase2 enzyme. The Amplex Red Sphingomyelinase activity assay was performed according to previously a described protocol^1. Confluent cells were washed with PBS and harvested with lysis buffer [100 mM Tris-HCl pH 7.5, 100 mM sucrose, 100 μM PMSF, 1× protease inhibitor cocktail] using a cell scraper, and then sonicated 3 times on ice for 10 sec and centrifuged at 10,000×g for 10 min at 4° C. to remove remaining cell debris. An initial screening of a compound library was performed using 50 μM compound concentrations. In secondary testing, selected compounds were analyzed at multiple compound concentrations and plotted as a percentage of DMSO control; dose-response curves were generated to determine IC50s using GraphPad Prism software (GraphPad Software, La Jolla Calif.). […] Activity of the enzyme in the presence of the different concentrations of the inhibitors was plotted against substrate concentration and the maximal rate of the enzymatic reaction (Vmax) and Michaelis constant were calculated using GraphPad Prism.

Compound	IC50	IC50 (IC50 nSMase2, Table 2, unit not in table, μM)
CCN(C)C(=O)Oc1ccc2c(c1)[C@]1(C)CCO[C@@H]1N2C [drawing 65]	1 to 10 µM	
CCN(C)C(=O)Oc1ccc2c(c1)[C@]1(C)CCO[C@@H]1N2C [Compound 16]		> 5 µM
